The source of these data is PMC8308830, “Single-Agent and Fixed-Dose Combination HIV-1 Protease Inhibitor Drugs in Fission Yeast (Schizosaccharomyces pombe)” (Pathogens, 2021).

The structures appear in SMILES notation.

Assay [1] concerns the target T1, HIV-1 PR (Human immunodeficiency virus type 1 group M subtype B, UniProt P12497). Nature of the assay: cell-based. The conditions noted are these: EC50 in Fission Yeast /Pure Compound, PR-on RE294 cells, growth (OD650) at 72 h post-gene induction relative to PR-off cells.
For assay [2], the target named is T1, HIV-1 PR. Conditions: 150 μM drug; G31 cells; 20 h post-gene induction.

Regarding `Cc1cccc(C)c1OCC(=O)N[C@@H](Cc1ccccc1)[C@@H](O)C[C@H](Cc1ccccc1)NC(=O)[C@H](C(C)C)N1CCCNC1=O` [LPV, Lopinavir], the EC50 (usually the concentration at which the effect is half-maximal) in assay [1] stood at 4.59 ± 0.06 µM. On to `CC(C)CN(C[C@@H](O)[C@H](Cc1ccccc1)NC(=O)O[C@H]1CCOC1)S(=O)(=O)c1ccc(N)cc1` [APV, Amprenavir], for which, in assay [2], the “inhibition of HIV-1 PR proteolytic cleavage of GFP-MA↓CA-Vpr (Vpr pattern vs GFP pattern)” value was “suppressed the PR activities”.
